Measured values published in patent US9220705B2, “Method of treating colorectal cancer” (priority 2013, dated 2015).

Legend:
[1] = test system: panel of human tumor cell lines (A431, MCF-7, A375, HCT-15, SW480, CaCo-2, DLD-1); test: MTT cytotoxicity, comparison over the Table 1 panel; type: cell-based; conditions: average over seven cell lines of Table 1
Method: (§1) After 24 h, the medium was removed and replaced with a fresh one containing the compound to be studied, at the appropriate concentration, dissolved in 0.9% sodium chloride solution just before use. Triplicate cultures were established for each treatment. After 72 h, each well was treated with […] of a 5 mg mL^−1 MTT saline solution and, after 5 h of incubation, 100 μL of a sodium dodecylsulfate (SDS) solution in 0.01 M HCl were added. After an overnight incubation, the inhibition of cell growth induced by the tested complexes was determined by measuring the absorbance of each well at 570 nm using a BioRad 680 microplate reader. Mean absorbance for each drug dose was expressed as percentage of the control and plotted vs. drug concentration. Dose-response curves were fitted and IC50 values were calculated with four parameter logistic model (4PL).
The cytotoxicity was evaluated by means of the MTT test for 72 h treatment with increasing concentrations of the tested compounds.

[2] = test system: 2008/C13*, LoVo/LoVo-OXP, LoVo MDR; test: MTT cytotoxicity, comparison over the Table 2 cell lines; type: cell-based, human; conditions: 2008 ovarian and LoVo colon sensitive cells
Method: as §1
A LoVo cell line retaining a multidrug resistance phenotype was also considered (LoVo MDR). Cross-resistance profiles were evaluated by means of the resistance factor (RF), which is defined as the ratio between the IC50 value for the resistant cells and that arising from the sensitive cells (Table 2).

Substance: (OC-6-33)-dichloro(cis-1,4-cyclohexanediamine-N,N′)dihydroxyplatinum [Compound 4]
- average cytotoxic activity compared with reference drugs [1]: lower than oxaliplatin but slightly higher than cisplatin
- cytotoxic activity towards sensitive lines compared with reference drugs [2]: less effective than oxaliplatin and cisplatin towards ovarian sensitive cell line and rather similar to cisplatin against LoVo colon cancer cells
